The values below come from patent publication US11655207B2, “Pharmaceutically acceptable salt of alkylcarbamoyl naphthalenyloxy octenoylhydroxy amide or of derivative thereof and method for preparing same” (CRYSTALGENOMICS, INC., priority 2017, dated 2023).

Like-named read-outs stand apart in the source and are kept apart here.

`CN(C)CCCNC(=O)/C(=C/CCCCC(=O)NO)COc1cccc2ccccc12.O=C(O)C(O)C(O)C(=O)O` [Example 1, Alkylcarbamoyl Naphthalenyloxy Octenoyl Hydroxyamide Tartaric Acid Salt]: the Content (bottle package, 1 day, Room temperature) was determined as 99.3; the Content (bottle package, 1 day, Severe (60±2° C.)) was found to be 101.2; the Content (bottle package, 3 days, Room temperature) is reported as 99.5; the Content (bottle package, 7 days, Room temperature) amounted to 99.4; the Content (open state, 1 day, Long-term (25±2° C. and 60±5% RH)) came out at 99.9; the Content (open state, 1 day, Room temperature) was 101.0. Further, the Content runs as follows: (open state, 1 day, Severe (60±2° C.)) 101.1; (open state, 3 days, Room temperature) 101.9.
